The list shows a part of the results.

The record followed here is published antibiotic growth screens (doi:10.1038/s41589-023-01349-8).

This test has as its system A. baumannii ATCC 17978. Description: relative growth (fraction of control); higher = less inhibition. Particulars: 50 µM.
Take `CC1(C)[C@H]2CC[C@@]1(C)c1nn(-c3ccccc3)c(C(F)(F)F)c12`: the relative growth is 0.937.
To `C/N=C(\NC)NCCC[C@H](N)C(=O)O` belongs 0.891; to `C[C@H](O)C#Cc1ccc2c(c1)O[C@H](CN(C)C(=O)c1ccccc1)[C@@H](C)CN([C@H](C)CO)S2(=O)=O`, 1.13; to `Cn1cnc(S(=O)(=O)N[C@@H]2CC[C@@H](CC(=O)NCC3CC3)O[C@@H]2CO)c1`, 0.818.
To `COc1ccc(NC(=O)Nc2ccc3c(c2)[C@H]2C[C@H](CC(=O)NCC(F)(F)F)O[C@@H](CO)[C@H]2O3)cc1` belongs 1.06; to `COc1ccc2c(=O)ccoc2c1`, 1.13; to `COc1ccc([Si](C)(C)[C@@H]2[C@@H](CCOC(=O)NCCCCCC(=O)NO)O[C@@]3(C(=O)N(Cc4ccccc4)c4ccc(NC(=O)[C@@H](C)OC(=O)NCCCCCC(=O)NO)cc43)[C@H]2C)cc1`, 0.934.
In the case of `COCC(=O)N(C)C[C@@H]1Oc2cc(C#CC(C)(C)O)ccc2S(=O)(=O)N([C@@H](C)CO)C[C@@H]1C`, the relative growth came to 1.08.
The molecule `C=CC(C1=CC(=O)C=CC1=O)c1ccccc1` (stereo unspecified) gave a relative growth of 0.981.
Molecule `O=C[C@H](O)[C@@H](O)[C@H](O)CO` displayed a relative growth of 1.21.
For the molecule `CCNc1nc(NCC)nc(C(=O)OCCO)n1`, the relative growth stood at 0.877.
To `O=C(C[C@H]1C[C@@H]2c3cc(NC(=O)C4CCOCC4)ccc3O[C@@H]2[C@@H](CO)O1)NCCN1CCCCC1` belongs 1.1; to `CC(C)C[C@@](O)(CC(=O)O)C(=O)O`, 1.02.
Consider `Cc1cccc(N[C@H]2CS(=O)(=O)C[C@@H]2O)c1`, for which the relative growth was 1.1.
Molecule `O=C(C[C@H]1CC[C@@H]2[C@H](COC[C@H](O)CN2S(=O)(=O)c2ccc(Cl)cc2)O1)N[C@H]1CCN(Cc2ccccc2)C1` displayed a relative growth of 0.896.
For the molecule `C=CCOC(=O)[C@@H]1[C@H]2C(=O)O[C@H](c3ccccc3)[C@H](c3ccccc3)N2[C@H](c2ccc(OCCOC(=O)[C@@H]3C[C@@H]4C(=O)NCC(=O)N4[C@@H]3c3ccc(O)cc3)cc2)[C@@]12C(=O)Nc1ccc(I)cc12`, the relative growth was 1.24.
For the molecule `COc1c2ccoc2c(OC)c2oc(=O)ccc12`, the relative growth is 1.01.
To `C[C@H](N)C(=O)N1CCc2ccccc2C1` belongs 1.06.
`C[C@H](CO)N1C[C@H](C)[C@@H](CN(C)C(=O)Nc2ccc(C(F)(F)F)cc2)Oc2ncc(C3=CCCC3)cc2C1=O` yielded a relative growth of 0.968.
`C[C@H](CO)N1C[C@H](C)[C@H](CN(C)C)Oc2cc(C#C[C@@H](C)O)ccc2S1(=O)=O` displayed a relative growth of 0.853.
Molecule `CN(C)CC(=O)N[C@@H]1C=C[C@@H](CC(=O)NCCN2CCCCC2)O[C@H]1CO` returned a relative growth of 0.933.
Molecule `O=C1O[C@@H](c2ccccc2)[C@@H](c2ccccc2)N2[C@@H](c3ccc(OCCO)cc3)[C@]3(C(=O)Nc4ccc(C#CC5=CCCCC5)cc43)[C@@H](C(=O)NC[C@H](O)c3ccccc3)[C@H]12` showed a relative growth of 1.2.
For `CN(C)c1ccc(NC(=O)CN)cc1`, the relative growth came out at 1.06.
As for `C[C@@H]1C[C@H](C)CN(S(=O)(=O)N2CCC[C@H](C(=O)NCCN3CCOCC3)C2)C1`, the relative growth was 1.12.
With `c1ccc2c(CSc3nc4ccccc4s3)cccc2c1` the figure was 1.14.
With `COC[C@@H](O)CSc1[nH]c(C)nc1[N+](=O)[O-]` the figure was 1.01; with `COc1ccc2c(c1)OC/C(=C\c1ccc(OC)c(O)c1)C2=O`, 0.957.
`COc1ccc(-c2cc(=O)c3c(O)cc(O)c(-c4cc(-c5cc(=O)c6c(O)cc(O)cc6o5)ccc4OC)c3o2)cc1` had a relative growth of 1.01.
With `COCCCNC(=O)C[C@H]1SC(=N)NC1=O` the figure was 1.03; with `COC(=O)C1=C(C)NC(C)=C(C(=O)OCCN2CCN(C(c3ccccc3)c3ccccc3)CC2)C1c1cccc([N+](=O)[O-])c1` (stereo unspecified), 1.32.
The molecule `CCOc1nc2cccc(C(=O)OC(C)OC(=O)OC3CCCCC3)c2n1Cc1ccc(-c2ccccc2-c2nnn[nH]2)cc1` (stereo unspecified) showed a relative growth of 0.95.
To `CC[C@@H](C)C(=O)O[C@H]1[C@@H]2CC3=C4CC(=O)O[C@@H](c5ccoc5)[C@]4(C)CC[C@@H]3[C@@](C)(C2=O)[C@@H](CC(=O)OC)C1(C)C` belongs 1.08; to `CCS(=O)(=O)NCC[C@@H]1CC[C@H](NC(=O)Cc2ccccn2)[C@@H](CO)O1`, 0.828; to `CC(=O)Nc1ccccc1`, 0.935.
To `COc1ccc(C(=O)Nc2cccc(CN3C(=O)[C@@]4(O[C@@H](CC(=O)N5CCC[C@H]5CO)[C@H]([Si](C)(C)c5ccc(OC)cc5)[C@H]4C)c4ccccc43)c2)cc1` belongs 1.03; to `C[C@H](CO)N1C[C@H](C)[C@H](CN(C)S(C)(=O)=O)Oc2cc(-c3cccc(F)c3)ccc2S1(=O)=O`, 0.949.
To `NC(=S)N[C@H]1C[C@@H]2C=C[C@H]1C2` belongs 1.09; to `CC(=O)Oc1ccc(-c2cc(=O)c3c(OC(C)=O)cc(OC(C)=O)cc3o2)cc1`, 0.907; to `COc1ccccc1CN1C(=O)c2ccccc2[C@](Cc2ccccc2I)(C(=O)NCC(C)C)[C@@H]1c1ccc(CO)cc1`, 1.03.
With `O=C1O[C@@H](c2ccccc2)[C@@H](c2ccccc2)N2[C@@H](c3ccc(O)cc3)[C@]3(C(=O)Nc4ccc(C#CCCO)cc43)[C@@H](C(=O)N3CCCCCCC3)[C@H]12`, the relative growth came to 0.928.
Take `CC(C(=O)O)c1ccc2c(c1)Cc1cccnc1O2` (stereo unspecified): the relative growth was found to be 1.
In the case of `O=C(C[C@@H]1CC[C@H](NC(=O)C2CC2)[C@@H](CO)O1)NCCCN1CCOCC1`, the relative growth stood at 0.979.
Consider `C[C@H](CCC(=O)O)[C@H]1CC[C@H]2[C@@H]3CC=C4C[C@@H](O)CC[C@]4(C)[C@H]3CC[C@]12C` [3beta-HYDROXYCHOL-5-ENIC ACID], for which the relative growth was found to be 0.879.
Turning to `CC(C)(O)c1ccccc1CC[C@@H](SCC1(CC(=O)[O-])CC1)c1cccc(/C=C/c2ccc3ccc(Cl)cc3n2)c1.[Na+]`, the relative growth worked out at 1.34.
`O=C(CCCCCCC(=O)Nc1ccc(C(=O)NCCOCCOCCNC(=O)c2ccc(NC(=O)CCCCCCC(=O)NO)cc2)cc1)NO`: the relative growth amounted to 0.841.
`COCC(=O)N(C)C[C@H]1Oc2cc(C#Cc3ccccc3)ccc2S(=O)(=O)N([C@@H](C)CO)C[C@H]1C` displayed a relative growth of 0.954.
To `Cn1cccc1[C@@H](CN)N1CCc2ccccc2C1` belongs 0.926.
Molecule `COC[C@@H]1CN(C)N=C(C2CC2)O1` displayed a relative growth of 1.19.
Molecule `COc1cccc(S(=O)(=O)N[C@@H]2C=C[C@H](CC(=O)NC3CCC3)O[C@@H]2CO)c1` displayed a relative growth of 1.1.
Molecule `N[C@@H](Cc1ccc2nonc2c1)C(=O)O` showed a relative growth of 1.07.
In the case of `O=C(NCCN1CCOCC1)C(=O)NC[C@H]1COc2ccccc2O1`, the relative growth turned out to be 1.07.
